The assay addresses μ-receptor (isolated guinea pig ileum, GPI) (Cavia porcellus, UniProt P97266). The assay can be described thus: Peripheral opioid activity: inhibition of electrically-induced contractions of isolated guinea pig ileum (GPI). The protocol:
The segment of GPI about 1 cm long was placed into a 10-ml organ bath containing Krebs solution at 34° C. […] Resting tension of the organ was 1 g. The segment of GPI was stimulated by single pulses duration 1 ms with 0.1 Hz at 80 V. The solution with isolated organs was constantly aerated. The contractions were recorded in an isometrical mode by a sensor K 30 (Hugo Sachs Elektronic KG) with paper register Rikadenki-series (Japan).
The substances tested were dissolved in distilled water and added cumulatively to the organ bath at a volume of 5 to 30 mcl. Each subsequent substance was added after the isolated organs were washed 3 or 4 times for 12-15 min. On the basis of the data obtained, dose-effects curves were plotted and the activity of substances was expressed by IC50 or pD2. The pD2 index was equal to a negative decimal logarithm of the substance concentration causing a 50% of the maximal effect.
New dermorphin analogues were tested in the standard model of Guinea pig ileum binding test.
For confirmation of opioid activity, the specific antagonist naloxson was used in concentration of 10^−5M. Each molecule was tested in 5 independent replications and relative activity was calculated as negative logarithm of EC50 (pD2).

Sequences of proteins named here, by UniProt entry; tags and fusion partners are left off.
UniProt P97266, whole entry: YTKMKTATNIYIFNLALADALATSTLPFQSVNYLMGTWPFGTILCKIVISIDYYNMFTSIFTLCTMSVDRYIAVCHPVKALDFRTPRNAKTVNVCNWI

The results in this text go back to US8637521B2, “Substituted piperazin-2,5-diones and their use as multifunctional bioactive compounds” (priority 2006, dated 2014).

For orientation: EC50 means the concentration that produces a half-maximal response. On to H-Tyr-D-Ala-Phe-Gly-OH [Compound 55], for which the EC50 (concentration reducing contraction amplitude by 50%, 5 replications, read-out: Median EC50) was 1000 nM. The “Value of pD2 (M ± m)” value (negative logarithm of EC50) came to 5.81 ± 0.16.
